Assays:
[1] = target: T1, CTR (UniProt P30988); assay: pEC50 of agonist-induced pathway activation (ebBRET)
T1 sequence (whole entry): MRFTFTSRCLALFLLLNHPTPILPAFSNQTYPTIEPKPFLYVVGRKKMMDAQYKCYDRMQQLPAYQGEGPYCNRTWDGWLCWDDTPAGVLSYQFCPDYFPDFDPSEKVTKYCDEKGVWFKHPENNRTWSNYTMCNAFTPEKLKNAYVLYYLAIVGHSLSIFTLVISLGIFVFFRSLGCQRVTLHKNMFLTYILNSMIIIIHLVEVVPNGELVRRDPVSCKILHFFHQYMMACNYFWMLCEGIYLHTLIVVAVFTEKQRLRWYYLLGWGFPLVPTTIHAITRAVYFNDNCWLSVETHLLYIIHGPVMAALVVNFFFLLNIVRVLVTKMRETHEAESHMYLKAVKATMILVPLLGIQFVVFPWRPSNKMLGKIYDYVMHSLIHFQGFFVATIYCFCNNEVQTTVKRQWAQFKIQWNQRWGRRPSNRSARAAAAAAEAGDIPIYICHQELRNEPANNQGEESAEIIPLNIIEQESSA

Protein sequences, listed by entry. Tags and fused reporters are not part of them. Lines headed by an entry give the natural chain unless they say otherwise; changes in a name come on top.
UniProt P43116: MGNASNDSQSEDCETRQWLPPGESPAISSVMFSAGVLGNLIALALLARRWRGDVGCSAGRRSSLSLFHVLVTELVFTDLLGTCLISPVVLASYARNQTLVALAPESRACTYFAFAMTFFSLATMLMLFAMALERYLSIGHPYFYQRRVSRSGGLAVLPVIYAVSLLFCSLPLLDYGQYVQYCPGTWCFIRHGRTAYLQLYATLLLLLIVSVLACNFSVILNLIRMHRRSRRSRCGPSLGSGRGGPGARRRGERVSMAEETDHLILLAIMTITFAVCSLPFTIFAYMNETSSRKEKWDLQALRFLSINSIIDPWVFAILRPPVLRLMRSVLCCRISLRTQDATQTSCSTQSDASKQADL

[2] = target: EP2 (UniProt P43116); assay: as above
[3] = pathway (G protein / arrestin sensor): G12
[4] = pathway (G protein / arrestin sensor): G15
[5] = pathway (G protein / arrestin sensor): Gs
[6] = pathway (G protein / arrestin sensor): Gz
[7] = pathway (G protein / arrestin sensor): βarr1/GRK2
[8] = pathway (G protein / arrestin sensor): βarr2
[9] = pathway (G protein / arrestin sensor): βarr2/GRK2

| SMILES | pEC50 ([1]; pathway (G protein / arrestin sensor): G11) | pEC50 [1, 3] | pEC50 ([1]; pathway (G protein / arrestin sensor): G13) | pEC50 ([1]; pathway (G protein / arrestin sensor): G14) | pEC50 [1, 4] | pEC50 ([1]; pathway (G protein / arrestin sensor): Gi1) | pEC50 ([1]; pathway (G protein / arrestin sensor): Gi2) | pEC50 ([1]; pathway (G protein / arrestin sensor): GoA) | pEC50 ([1]; pathway (G protein / arrestin sensor): GoB) | pEC50 ([1]; pathway (G protein / arrestin sensor): Gq) | pEC50 [1, 5] | pEC50 [1, 6] | pEC50 [1, 7] | pEC50 [1, 8] | pEC50 [1, 9] | pEC50 [2, 3] | pEC50 [2, 4] | pEC50 [2, 5] | pEC50 [2, 6] | pEC50 [2, 7] | pEC50 [2, 8] | pEC50 [2, 9] |
| --- | --- | --- | --- | --- | --- | --- | --- | --- | --- | --- | --- | --- | --- | --- | --- | --- | --- | --- | --- | --- | --- | --- |
| CC[C@H](C)[C@H](NC(=O)[C@H](C)NC(=O)[C@@H](NC(=O)[C@H](CCC(N)=O)NC(=O)[C@@H]1CCCN1C(=O)[C@H](Cc1ccccc1)NC(=O)[C@@H](NC(=O)[C@H](Cc1c[nH]cn1)NC(=O)[C@H](Cc1ccccc1)NC(=O)[C@H](CCCCN)NC(=O)[C@H](CC(N)=O)NC(=O)[C@H](Cc1ccccc1)NC(=O)[C@H](CC(=O)O)NC(=O)[C@H](CCC(N)=O)NC(=O)[C@@H](NC(=O)[C@H](Cc1ccc(O)cc1)NC(=O)[C@@H](NC(=O)CNC(=O)[C@H](CC(C)C)NC(=O)[C@H](CCSC)NC(=O)[C@@H]1CSSC[C@H](N)C(=O)NCC(=O)N[C@@H](CC(N)=O)C(=O)N[C@@H](CC(C)C)C(=O)N[C@@H](CO)C(=O)N[C@@H]([C@@H](C)O)C(=O)N1)[C@@H](C)O)[C@@H](C)O)[C@@H](C)O)[C@@H](C)O)C(=O)NCC(=O)N[C@H](C(=O)NCC(=O)N[C@@H](C)C(=O)N1CCC[C@H]1C(N)=O)C(C)C [Calcitonin] | 8.22 | 9.61 | 10.1 | 8.43 | 10.6 | 8.35 | 8.49 | 8.54 | 9.06 | 8.65 | 12 | 8.26 | 8.28 | 8.17 | 8.21 |  |  |  |  |  |  |  |
| CCCCC[C@H](O)/C=C/[C@H]1[C@H](O)CC(=O)[C@@H]1C/C=C\CCCC(=O)O [PGE2] |  |  |  |  |  |  |  |  |  |  |  |  |  |  |  | 6.38 | 6.62 | 9.46 | 6.43 | 6.51 | 7.26 | 6.92 |
